Target: T1, human liver FBPase (Homo sapiens, UniProt P09467)
T1 construct: made in house; host or cells: E. coli BL21
T1 sequence (P09467 2-338 limits assumed): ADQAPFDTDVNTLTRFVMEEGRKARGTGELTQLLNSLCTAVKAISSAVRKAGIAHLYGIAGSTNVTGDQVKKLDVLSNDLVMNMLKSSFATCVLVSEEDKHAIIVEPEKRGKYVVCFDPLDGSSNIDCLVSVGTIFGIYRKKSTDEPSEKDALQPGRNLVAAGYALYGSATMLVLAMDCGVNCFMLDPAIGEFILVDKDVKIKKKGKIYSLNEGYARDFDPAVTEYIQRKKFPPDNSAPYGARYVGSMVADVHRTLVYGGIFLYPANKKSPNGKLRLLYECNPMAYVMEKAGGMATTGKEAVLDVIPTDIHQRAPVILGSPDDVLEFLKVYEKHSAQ
Assay: Inhibition of human liver FBPase
Assay type: biochemical
Details: result in words

SMILES: CCc1cc(F)c(N)c2nc(-c3ccc(P(=O)(O)O)o3)n(CC(C)C)c12 [Compound 12.64]
- inhibition of human liver FBPase activity (FIG. 2): inhibit human liver FBPase activity in vitro in a dose dependent manner
